# Assays:
# [1] = gastro-intestinal treatment (GIT procedure) of CDBAP; format: in vitro ADME, human
# Protocol: After consumption, dietary proteins and peptides are exposed to various digestive enzymatic processes in the gastrointestinal tract. In order to assess the stability of the newly identified bioactive peptides in the human gastrointestinal tract, the CDBAP preparation (prepared as described in Example 7) was subjected to a gastro-intestinal treatment (GIT) simulating the digestive conditions typically found in the human body. Samples obtained after various incubation times in the GIT model system were analysed using the on-line HPLC-Bioassay-MS or HRS-MS system to quantify any residual MAP and ITP peptides. The GIT procedure was performed in a standardized mixing device incorporating a 100 ml flask (as supplied by Vankel, US). The temperature of the water bath was set to 37.5° C. and the paddle speed was chosen such that the sample was kept in suspension (100 rpm). […] During gastric simulation 5 M HCl was used to decrease the pH. At the end of gastric simulation and during the duodenal phase 5 M NaOH was used to raise the pH. […] The total N concentration of the powder as obtained was determined and converted to protein level using the Kjeldahl factor of casein (6.38). […] The levels of MAP and ITP surviving the proteolytic treatment according to the GIT procedure were determined as described in Example 7 and the data obtained are shown in Table 10.
# [2] = Simulated in-vitro gastro-intestinal digestion of synthetic MAP and ITP; format: in vitro ADME; conditions: for remaining at 0.5 h, 1 microgram/ml / remaining at 1 h, 1 microgram/ml: simulated gastric fluid, pH 3.5
# From the text: For the dissolution the following solutions were used: […] Simulated gastric fluid; […]
# [3] = simulated intestinal fluid, pH 6.8
Concentration in CDBAP before GIT procedure [1] [μg g^−1 powder],"% average remaining ([2]; 10 microgram/ml, 90 minutes, intestinal conditions pH 6.8) [%]","remaining at 0.5 h, 1 microgram/ml [2] [%]","remaining at 1 h, 1 microgram/ml [2] [%]","remaining at 65 min, 1 microgram/ml [2, 3] [%]","remaining at 1.25 h, 1 microgram/ml [2, 3] [%]","remaining at 1.25 h, 10 microgram/ml [2, 3] [%]","remaining at 2 h, 1 microgram/ml [2, 3] [%]","remaining at 1.5 h, 1 microgram/ml [2, 3] [%]",SMILES
903.7,62,99,85,65,65,63,64,–,"CC[C@H](C)[C@H](N)C(=O)N[C@H](C(=O)N1CCC[C@H]1C(=O)O)[C@@H](C)O [ITP, Isoleucine-Threonine-Proline]"
2851.4,–,93,62,51,49,27,–,28,"CSCC[C@H](N)C(=O)N[C@@H](C)C(=O)N1CCC[C@H]1C(=O)O [MAP, Methionine-Alanine-Proline]"

# — patent US20090143311A1, “Compositions comprising tripeptides inhibiting ace” (priority 2005, published 2009)
